For assay [1], the target named is Adenosine A2 receptor (Rattus norvegicus, UniProt P29276+P30543). Kind of assay: Binding affinity for Adenosine A2 receptor in corpora striata of rats using [3H]NECA. In kind it is protein assay.
The target in assay [2] is Adenosine receptor A1 (Rattus norvegicus, UniProt P25099). Kind of assay: Binding affinity towards the adenosine A1 receptor in cerebral cortices of Sprague-Dawley male rats using [3H]CHA as radioligand.

Amino acid sequences for entries named in this document (tags omitted). A change or cut given only in a name is not applied to a line headed by its entry.
UniProt P29276: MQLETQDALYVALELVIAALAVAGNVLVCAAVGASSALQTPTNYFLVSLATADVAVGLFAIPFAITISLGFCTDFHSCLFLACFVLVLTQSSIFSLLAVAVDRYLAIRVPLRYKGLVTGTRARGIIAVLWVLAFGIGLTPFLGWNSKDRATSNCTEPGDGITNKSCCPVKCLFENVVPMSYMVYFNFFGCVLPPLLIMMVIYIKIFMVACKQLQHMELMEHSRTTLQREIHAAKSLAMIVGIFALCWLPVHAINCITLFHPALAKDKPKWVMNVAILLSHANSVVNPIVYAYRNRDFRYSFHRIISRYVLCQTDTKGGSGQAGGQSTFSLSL
UniProt P30543: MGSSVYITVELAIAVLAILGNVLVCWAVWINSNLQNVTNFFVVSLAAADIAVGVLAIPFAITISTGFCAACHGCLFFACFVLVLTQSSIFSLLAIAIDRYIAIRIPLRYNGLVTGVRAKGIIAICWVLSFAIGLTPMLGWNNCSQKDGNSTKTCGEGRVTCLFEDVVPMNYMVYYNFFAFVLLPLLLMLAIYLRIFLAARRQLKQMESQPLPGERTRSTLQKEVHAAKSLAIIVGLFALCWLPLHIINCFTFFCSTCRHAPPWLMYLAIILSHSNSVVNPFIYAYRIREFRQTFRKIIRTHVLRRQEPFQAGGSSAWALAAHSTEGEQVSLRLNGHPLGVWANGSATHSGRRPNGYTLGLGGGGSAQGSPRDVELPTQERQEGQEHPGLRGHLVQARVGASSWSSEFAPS
UniProt P25099, whole entry: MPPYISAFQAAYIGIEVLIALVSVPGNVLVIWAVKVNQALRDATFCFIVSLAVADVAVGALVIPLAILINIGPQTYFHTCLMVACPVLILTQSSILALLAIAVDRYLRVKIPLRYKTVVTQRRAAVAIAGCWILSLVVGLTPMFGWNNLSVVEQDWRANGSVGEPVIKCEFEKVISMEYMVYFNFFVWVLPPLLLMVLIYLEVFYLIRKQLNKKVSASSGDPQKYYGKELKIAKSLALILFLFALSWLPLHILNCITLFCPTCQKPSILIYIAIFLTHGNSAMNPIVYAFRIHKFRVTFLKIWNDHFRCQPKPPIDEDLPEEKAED

The source of these data is ChEMBL document CHEMBL1124880 (J Med Chem, 1990).

pIC50: −log10 of the molar value.

`C[C@H](Cc1ccccc1)Nc1ncnc2c1ncn2[C@@H]1O[C@H](CO)[C@@H](O)[C@H]1O` [(R)-PIA] showed a Ki in assay [1] of 30000 nM.

In turn, `Nc1nc2ccc(Cl)cc2c2nc(-c3ccco3)nn12` [CGS-15943] showed a pIC50 in assay [2] of 8.22.

One may read the Ki as the equilibrium dissociation constant of an inhibitor or competing ligand from its target. In general, pIC50 refers to the IC50 on a negative log10 scale, so that one unit is a factor of ten.
